Experimental data from article PMC8471592, “Characterization of Conserved and Promiscuous Human Rhinovirus CD4 T Cell Epitopes” (Cells, 2021).

Key:
[1] = target: HLA-DQA1*05:01/DQB1*03:01 (Homo sapiens, UniProt P01909+P01920); test: biochemical
[2] = target: HLA-DQA1*01:01/DQB1*05:01 (Homo sapiens, UniProt P01909+P01920, A157S/A45G/A70V/C70R/D89V/E106S/E118A/E183D/E77G/F83G/G63E/H151Q/H199R/H252R/H253Q/I129T/I235V/I88M/INS77G/K197Q/L107V/L117V/L119Y/L178F/L71W/L74F/L85Q/L91A/L98M/M46L/N214S/P87R/Q116E/Q256R/Q57E/Q76K/R102G/R240Q/R75S/R78G/S102Y/S185I/S41F/S97I/T103A/T109R/T121G/T122I/T172A/T86R/V148I/V68A/V73E/Y34C/Y58G/Y62H); test: Competitive inhibition HLA II binding assay; settings: competition with radiolabeled probe peptide, purified HLA II, 0.3 nM–30 µM, 2-day incubation; mean of three or more independent assays
[3] = target: HLA-DQA1*03:01/DQB1*03:01 (Homo sapiens, UniProt P01909+P01920, A209T/C70Q/DUP78-78/E183D/F237L/G63E/I129T/K197E/L178F/L74F/L98V/Q57E/Q76R/S185I/S97I/T49S/V73L); test: Competitive inhibition HLA II binding assay; settings: competition with radiolabeled probe peptide, purified HLA II, 0.3 nM–30 µM, 2-day incubation; mean of three or more independent assays
[4] = target: HLA-DQA1*02:01/DQB1*02:02 (Homo sapiens, UniProt P01909+P01920, A45G/A70V/C70K/D167G/D89A/E106A/E183D/E77G/E98D/F237L/F77L/G63E/H199R/I129T/K197E/L107V/L178F/L74F/N214S/P84L/P87L/Q57E/Q76R/R75H/S185I/S97I/T103K/T109R/T172A/T60S/V73L/V78E/V99I/Y48F/Y58L/Y62S/Y69I/Y79F); test: Competitive inhibition HLA II binding assay; settings: competition with radiolabeled probe peptide, purified HLA II, 0.3 nM–30 µM, 2-day incubation; mean of three or more independent assays
[5] = target: HLA-DQA1*05:01/DQB1*02:01 (Homo sapiens, UniProt P01909+P01920, A45G/A70V/D89A/E106A/E77G/E98D/H199R/L107V/N214S/P84L/P87L/T103K/T109R/T172A/T60S/V78E/V99I/Y58L/Y62S/Y69I/Y79F); test: biochemical
[6] = target: HLA-DQA1*01:02/DQB1*06:02 (Homo sapiens, UniProt P01909+P01920, A157G/A45G/C70R/E118A/E183D/E77G/F83G/G63E/H151Q/H199R/H252R/H253Q/I129T/I235V/I88M/INS77G/K197Q/L117V/L119F/L178F/L71W/L74F/L85Q/L91A/L98M/N214S/P87R/Q116E/Q76K/R102G/R240Q/R75S/R78G/S102Y/S185I/S41F/S97I/T121G/T122I/T172A/T86R/V229M/V68A/V73E/Y34C/Y41F/Y58L); test: Competitive inhibition HLA II binding assay; settings: competition with radiolabeled probe peptide, purified HLA II, 0.3 nM–30 µM, 2-day incubation; mean of three or more independent assays

SMILES | IC50 [1] [nM] | IC50 [2] [nM] | IC50 [3] [nM] | IC50 [4] [nM] | IC50 [5] [nM] | IC50 [6] [nM]
CC[C@H](C)[C@H](NC(=O)[C@@H](NC(=O)[C@H](CO)NC(=O)[C@@H](N)CC(=O)O)[C@@H](C)O)C(=O)N[C@H](C(=O)N[C@@H](CO)C(=O)N[C@@H](CCC(N)=O)C(=O)N[C@@H](CC(=O)O)C(=O)N[C@H](C(=O)N[C@@H](C)C(=O)N[C@@H](CC(N)=O)C(=O)N[C@@H](C)C(=O)N[C@H](C(=O)N[C@H](C(=O)NCC(=O)N[C@@H](Cc1ccc(O)cc1)C(=O)NCC(=O)N[C@H](C(=O)O)C(C)C)C(C)C)C(C)C)C(C)C)[C@@H](C)O [RVA89–106] | 68 | 7560 | 761 | 515 | 907 | 33
CC[C@H](C)[C@H](N)C(=O)N[C@@H](CC(N)=O)C(=O)N[C@@H](CC(C)C)C(=O)N[C@@H](CCCNC(=N)N)C(=O)N[C@H](C(=O)N[C@@H](CC(N)=O)C(=O)N[C@@H](CC(N)=O)C(=O)N[C@@H](CO)C(=O)N[C@@H](CO)C(=O)N[C@H](C(=O)N[C@H](C(=O)N[C@H](C(=O)N[C@H](C(=O)N1CCC[C@H]1C(=O)N[C@@H](Cc1ccc(O)cc1)C(=O)N[C@H](C(=O)N[C@@H](CC(N)=O)C(=O)O)[C@@H](C)CC)C(C)C)C(C)C)[C@@H](C)CC)[C@@H](C)O)[C@@H](C)O [RVC258–274] | – | 5200 | – | 434 | 19100 | 67
CC[C@H](C)[C@H](NC(=O)[C@H](CC(=O)O)NC(=O)[C@H](CCCNC(=N)N)NC(=O)[C@H](Cc1ccccc1)NC(=O)[C@H](CCCCN)NC(=O)[C@H](CCC(=O)O)NC(=O)[C@@H](N)CCCCN)C(=O)N[C@@H](CCCNC(=N)N)C(=O)N[C@@H](CCCNC(=N)N)C(=O)N[C@@H](Cc1ccccc1)C(=O)N[C@H](C(=O)N1CCC[C@H]1C(=O)O)[C@@H](C)CC [RVC1582–1592] | – | 2950 | – | – | 7430 | –
CC(C)C[C@H](NC(=O)[C@H](Cc1ccc(O)cc1)NC(=O)[C@H](Cc1c[nH]cn1)NC(=O)[C@@H]1CCCN1C(=O)[C@H](Cc1c[nH]c2ccccc12)NC(=O)[C@@H](NC(=O)CNC(=O)[C@H](Cc1ccc(O)cc1)NC(=O)CNC(=O)[C@@H](NC(=O)[C@@H](NC(=O)[C@H](C)NC(=O)[C@H](CC(N)=O)NC(=O)[C@H](C)NC(=O)[C@@H](N)C(C)C)C(C)C)C(C)C)C(C)C)C(=O)N[C@H](C(=O)N1CCC[C@H]1C(=O)N[C@@H](CCC(=O)O)C(=O)O)[C@@H](C)O [RVA97–114] | 724 | 20 | 2250 | – | 270 | 6410
CC(C)C[C@H](NC(=O)[C@H](CCC(=O)O)NC(=O)[C@H](CC(=O)O)NC(=O)[C@H](CCCCN)NC(=O)[C@H](CC(C)C)NC(=O)[C@H](Cc1ccc(O)cc1)NC(=O)[C@@H](NC(=O)[C@@H](NC(=O)[C@H](Cc1ccc(O)cc1)NC(=O)[C@@H]1CCCN1C(=O)[C@H](CC(C)C)NC(=O)[C@@H](N)CC(=O)O)C(C)C)[C@@H](C)O)C(=O)N[C@@H](CCCNC(=N)N)C(=O)O [RVC1835–1847] | – | 12700 | – | 5670 | 171 | –
CC[C@H](C)[C@H](NC(=O)CNC(=O)[C@H](CCCCN)NC(=O)[C@H](CCC(=O)O)NC(=O)[C@H](CC(C)C)NC(=O)[C@@H](NC(=O)[C@H](CC(=O)O)NC(=O)[C@H](CCCCN)NC(=O)[C@@H](N)C(C)C)C(C)C)C(=O)N1CCC[C@H]1C(=O)N[C@H](C(=O)N[C@@H](CC(C)C)C(=O)N[C@@H](CCC(N)=O)C(=O)N[C@@H](CO)C(=O)N1CCC[C@H]1C(=O)N[C@H](C(=O)N[C@H](C(=O)N[C@@H](CCC(=O)O)C(=O)O)C(C)C)[C@@H](C)O)[C@@H](C)O [RVA57–74] | 14800 | – | – | 3080 | 27200 | 71
CC(C)C[C@H](NC(=O)CN)C(=O)N[C@@H](CCC(=O)O)C(=O)N1CCC[C@H]1C(=O)N[C@@H](CC(C)C)C(=O)N[C@@H](CC(=O)O)C(=O)N[C@@H](CC(C)C)C(=O)N[C@@H](CC(N)=O)C(=O)N[C@H](C(=O)N[C@@H](CO)C(=O)N[C@@H](C)C(=O)NCC(=O)N[C@@H](Cc1ccccc1)C(=O)N1CCC[C@H]1C(=O)N[C@@H](Cc1ccc(O)cc1)C(=O)N[C@H](C(=O)O)C(C)C)[C@@H](C)O [RVC1791–1806] | 1820 | – | 10400 | 191 | 12400 | 1920
